This passage reports mortality results from US9920039B2, “1,2,4-Oxadiazol compounds active against gram-positive pathogens” (UNIVERSITÀ DEGLI STUDI DI MILANO—BICOCCA, priority 2013, dated 2018).

The term mortality denotes the share of the test organisms that died. Higher therefore signals a strong lethal effect.

The data set has as its system HepG2 human hepatoma cell line. The note with it: 48 h, 100 micrograms/mL.

Consider `CC(=O)NC[C@H]1CN(c2ccc(N3CCOCC3)c(F)c2)C(=O)O1` [Linezolid, reference compound], for which the mortality is recorded as 20%.
